Earlier results, collected in publication PMC9440028, “Neurotensin analogs by fluoroglycosylation at N^ω-carbamoylated arginines for PET imaging of NTS1-positive tumors” (Scientific Reports, 2022).

Chains of the proteins cited; added tags and fusions are not shown.
UniProt P30989, whole entry: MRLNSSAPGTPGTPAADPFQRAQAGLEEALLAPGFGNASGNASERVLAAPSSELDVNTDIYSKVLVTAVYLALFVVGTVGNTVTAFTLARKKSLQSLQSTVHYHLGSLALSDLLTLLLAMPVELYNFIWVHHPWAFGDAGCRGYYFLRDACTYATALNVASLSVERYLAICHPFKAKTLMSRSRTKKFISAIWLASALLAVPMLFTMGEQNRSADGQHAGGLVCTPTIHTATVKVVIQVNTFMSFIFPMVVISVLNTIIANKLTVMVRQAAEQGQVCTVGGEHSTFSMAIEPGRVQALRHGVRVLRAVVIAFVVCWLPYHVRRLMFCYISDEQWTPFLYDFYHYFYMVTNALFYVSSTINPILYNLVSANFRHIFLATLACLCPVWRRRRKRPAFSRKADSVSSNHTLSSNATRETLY

Tests used:
hNTS1R = hNTS1R (Homo sapiens, UniProt P30989); conditions: [^3H]UR-MK300, intact HT-29 cells; cited from earlier work
[1] = cited from earlier work

Structure (SMILES)	pKi ± SEM (hNTS1R)	Stability in human plasma [1]
CN[C@@H](CCCNC(=N)N)C(=O)N[C@@H](CCCNC(=N)N)C(=O)N1CCC[C@H]1C(=O)N[C@@H](Cc1ccc(O)cc1)C(=O)N[C@H](C(=O)N[C@@H](CC(C)C)C(=O)O)C(C)(C)C	9.07 ± 0.06	high stability
CC(C)C[C@H](NC(=O)[C@@H](NC(=O)[C@H](Cc1ccc(O)cc1)NC(=O)[C@@H]1CCCN1C(=O)[C@H](CCCNC(=N)N)NC(=O)[C@@H](N)CCCNC(=N)N)C(C)(C)C)C(=O)O	–	readily degraded
